The species named for one assay is Rattus norvegicus. As to the kind of experiment: Induction of ERK phosphorylation in rat astrocyte at 1 uM after 10 mins.
Assay [1] has as its target Kappa-type opioid receptor (Homo sapiens) (UniProt P41145). As to the kind of experiment: Displacement of [3H]dynorphin from human kappa opioid receptor expressed in C6 giloma cells measured total binding per mg of protein at 5 uM. Type of assay: cell-based. The procedure, abridged:
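Membranes from C6 glioma cells stably transfected with human KOR (G418 selected), harvested in PBS, homogenized in 50 mM Tris–HCl pH 7.4 and spun at 30,000g. Nonspecific binding defined with 10 µM U50488H. Read by filtration and counting.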

Protein sequences, listed by entry. Tags and fused reporters are not part of them. Lines headed by an entry give the natural chain unless they say otherwise; changes in a name come on top.
UniProt P41145: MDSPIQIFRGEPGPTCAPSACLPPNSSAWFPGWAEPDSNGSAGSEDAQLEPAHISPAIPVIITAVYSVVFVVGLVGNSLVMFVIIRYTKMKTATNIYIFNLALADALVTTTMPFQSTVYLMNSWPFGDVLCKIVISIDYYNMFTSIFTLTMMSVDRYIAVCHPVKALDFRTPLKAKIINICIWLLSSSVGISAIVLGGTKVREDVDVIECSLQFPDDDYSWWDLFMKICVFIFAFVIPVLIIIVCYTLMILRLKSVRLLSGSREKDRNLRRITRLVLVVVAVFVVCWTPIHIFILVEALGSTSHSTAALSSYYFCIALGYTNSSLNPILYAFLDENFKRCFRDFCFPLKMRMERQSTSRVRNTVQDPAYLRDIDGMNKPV

Calls of active or inactive are those of the source. The rule behind the calls is not given here.

As to `CN(C(=O)Cc1ccc(Cl)c(Cl)c1)C1CCCCC1N1CCCC1` (configuration not stated), the result in the assay filed under Rattus norvegicus was Active. In assay [1], this compound had an Activity of 19%.
